In US20250361271A1, “PEPTIDE AGONIST” (THE UNIVERSITY OF BIRMINGHAM, priority 2022, published 2025):

Tests used:
T1/2 in plasma (mouse) = type: in vitro ADME; settings: for half-life: mouse, plasma, 1 μM peptide, 37° C.; for stability compared with PEPITEM: in mouse plasma, human plasma, and or mouse blood
Description: Take all measurements in duplicate.

[1] = system: primary murine calvarial osteoblasts; experiment: Alkaline phosphatase activity, murine osteoblasts; type: cell-based, mouse; settings: 8 days, vs untreated cells, FIG. 5b
Procedure: Skin was removed from around calvaria using forceps, and the calvaria was dissected out and cleaned of any contaminating tissue. Calvaria were added to αMEM media supplemented with 1 mg/ml of collagenase d (Roche, Basel, Switzerland, COLLD-RO). Tubes were then agitated at 37° C. for 10 minutes and the media discarded. αMEM media supplemented with 1 mg/ml of collagenase d was again added to calvaria and shaken at 37° C. for 30 minutes. Media (containing cells) was then removed and kept on ice. The calvaria were then again shaken at 37° C. for 10 minutes in 1.5 ml of αMEM media supplemented with 5 μM EDTA (Sigma-Aldrich, E7889) and the cell containing media transferred to the sample on ice, pooling the cells. […] Cells on ice were then spun down at 300 g for 4 minutes, resuspended in 1 ml of Basal media and counted using a haemocytometer. […] Mineralisation was assessed by quantifying the level of alkaline phosphate (ALP) activity (absorbance at 405 nm) per condition normalized to the absorbance generated by the untreated control (control on the graph). […] The plate was wrapped in foil and left to run for 45 minutes at 37° C. in an incubated shaker (SciQuip; Shropshire, UK) before being quantified using a Synergy HT plate reader (BioTek) with absorbance set at 405 nm.

[2] = system: antigen induced monoarthritis; experiment: Monoarthritis model; type: in vivo, mice; settings: intraperitoneal injection at 0, 24 h, 48 h and 72 h; FIG. 6
Procedure: Mice were injected (sub-cutaneously) on one occasion with 100 μl antigen (bovine serum albumin; BSA) containing Freund's complete adjuvant (CFA) into a maximum of two sites in the lower dorsal area. At day 21, the mice were injected (10 μl, intra-articular) with the same antigen alone, in the absence of CFA, in one knee joint and PBS in the contralateral knee joint as a non-inflamed control. Animals received immune modulating agents (PEPITEM; SVT; QGA; or PBS as a control) by intraperitoneal injection at time 0, 24 h, 48 h and 72 h. Joint swelling as a measure of inflammation was conducted using calibrated calipers.

[3] = system: inflammatory leukocytic infiltrate of mice with peritonitis; experiment: Zymosan peritonitis, leukocyte sub-sets; type: in vivo; settings: 4 hours after zymosan; FIG. 10c
Procedure: Wild type mice were injected by the intraperitoneal route with 0.1 mg of sterile zymosan, stimulating peritonitis. After 48 hours (for the T cell and B cell tests) or 4 hours (for the neutrophil tests), the inflammatory leukocytic infiltrate was collected by peritoneal lavage. Leukocytes were washed and labelled with sub-set specific antibodies conjugated with fluorescent markers. The number of each sub-set was analysed by flow cytometry.

[4] = system: neutrophils on TNF-α-stimulated endothelial cells; experiment: Neutrophil adhesion to TNF-α-stimulated endothelial cells; type: cell-based; settings: neutrophils pre-treated 15 minutes; FIG. 15
Procedure: Cultured endothelial cells (ECs) were stimulated with 100 U of TNF-α for 4 hours. Neutrophils were isolated from freshly drawn whole blood. Neutrophils or ECs were pre-treated with PEPITEM, SVT, or QGA for 15 minutes prior to adhesion assay or were untreated. Neutrophils were added to wells containing stimulated ECs and incubated for 15 minutes. Wells were fixed and none-adherent neutrophils washed out. Adhesion was assessed by phase contrast microscopy. Data are form at least 3 independent experiments. **=p<0.01 by ANOVA.

[5] = type: in vitro ADME, pig
Procedure: Pig eyes were treated with either […] or one of TVS (reverse sequence of SVT comprising amino acids in D-isomeric forms), […] and QGA, derived from the […] sequence. The eyes were then incubated in a dark humified chamber. The eyes were dissected, and the vitreous humour and retina were harvested. The samples were sonicated to break up the tissue and purified using a C18 column. Once purified, the samples were digested and analysed by mass spectrometry.

[6] = system: PBLs on cytokine stimulated HDBECs; settings: for % Inhibition (0.3 nM): 0.3 nM peptide; for % Inhibition (0.3 nM) / % Inhibition (3 nM): inhibition of PBL transmigration (as a percentage of adherent cells); for effectiveness in inhibiting PBL transmigration compared with PEPITEM (% Inhibition at 0.3 and/or 3 nM): PEPITEM 41.90; for % Inhibition (3 nM): 3 nM peptide; for potency at inhibiting the transmigration of T cells compared with PEPITEM (IC50): PEPITEM IC50 0.02
[7] = human, plasma
[8] = system: Murine macrophage cell line J774; experiment: Cytokine release from macrophages; type: cell-based; settings: 15 minutes pretreatment, LPS, 24 h, at least to the same extent as PEPITEM
Procedure: (§1) Murine macrophage cell line J774 was established in culture. Cells were treated with PEPITEM, tripeptides, or peptide-mimetics for 15 minutes or had no treatment prior to the addition of LPS (a phlogistic stimulus). Supernatants were collected at 24 h. IL-6 and TNF-α concentrations in the supernatants were measured using ELISA. Data are from 3 experiments, ####=p<0.0001 vs control group; *=p<0.05: **=P≤0.01 vs LPS, by ANOVA.

[9] = system: NIH3T3 mouse embryonic fibroblast cells; experiment: Cytokine release from fibroblasts; type: cell-based; settings: 15 minutes pretreatment, LPS, 24 h, at least to the same extent as PEPITEM
Procedure: as §1, with “NIH3T3 mouse embryonic fibroblast cells were” for “Murine macrophage cell line J774 was”, “tripeptides” for “tripeptides,”, “LPS.” for “LPS (a phlogistic stimulus).”, “###=p<0.001, ##=p<0.01” for “####=p<0.0001”

[10] = system: HaCaT human epidermal keratinocytes; experiment: Keratinocyte proliferation (MTT); type: cell-based; settings: M5 cytokines, 72 hours; at least to the same extent as PEPITEM; FIG. 14
Procedure: HaCaT human epidermal keratinocytes were established in culture in 96 well plates. Cells were treated with PEPITEM, tripeptides or peptide-mimetics for 15 minutes or had no treatment prior to the addition of M5 cytokines (IL-17A, IL-22, IL-1α, OSM and TNFα). After 72 hours, MTT substrate was added to the wells and incubated for 3 hours. Colourimetric intensity as a measure of proliferation was assayed using a plate reader.

Row | Structure (SMILES) | half-life (T1/2 in plasma (mouse)) | IC50 [6] | % Inhibition (0.3 nM) [6] | effectiveness in inhibiting PBL transmigration compared with PEPITEM (% Inhibition at 0.3 and/or 3 nM) [6] | stability compared with PEPITEM (T1/2 in plasma (mouse)) | half-life [7] | % Inhibition (3 nM) [6] | further results
1 | CC(C)[C@H](NC(=O)[C@@H](N)CO)C(=O)N[C@H](C(=O)O)[C@@H](C)O [SEQ ID NO. 2, H-SVT] | 0.333 h | 0.15 nM | 42.20% | more effective | – | – | – | ALP activity (maturation mineralisation), murine osteoblasts [1]: significantly increased; knee / joint swelling [2]: equipotent in limiting joint swelling; number of neutrophils in the inflammatory leukocytic infiltrate [3]: reduce the number of neutrophils; neutrophil adhesion to endothelial cells [4]: reduce neutrophil adhesion to a greater extent than PEPITEM; eye tissue in which the peptide was found by mass spectrometry [5]: Vitreous humour & Retina; IC50, inhibition of trans-endothelial migration of PBLs [6]: 0.04558 ng/mL; effect on PBL adhesion ([6]; compared to untreated PBL (PBL0)): Neither the SVT tripeptide nor the QGA tripeptide exhibited any significant effect
2 | CC(=O)N[C@@H](CCC(N)=O)C(=O)NCC(=O)N[C@@H](C)C(N)=O [SEQ ID NO. 20, Ac-QGA-NH2] | 0.817 h | 0.1 nM | – | – | at least as stable | > 3 h | 28.60% | –
3 | CCNC(=O)[C@@H](NC(=O)[C@@H](NC(=O)[C@@H](N)CO)C(C)C)[C@@H](C)O [SEQ ID NO. 6, H-SVT-NH-Ethyl] | > 3 h | 0.017 nM | 46.00% | more effective | at least as stable | > 3 h | – | ALP activity (maturation mineralisation), murine osteoblasts [1]: significantly increased; concentration of IL-6 released ([8]; FIG. 12A): reduce; concentration of TNF-α released ([8]; FIG. 12B): reduce; concentration of IL-6 released ([9]; FIG. 13A): reduce; concentration of TNF-α released ([9]; FIG. 13B): reduce; cell proliferation of keratinocytes [10]: reduce cell proliferation of keratinocytes; potency at inhibiting the transmigration of T cells compared with PEPITEM (IC50) [6]: more potent
4 | CC(=O)N[C@@H](CCC(N)=O)C(=O)NCC(=O)N[C@@H](C)C(=O)O [SEQ ID NO. 19, Ac-QGA] | – | 0.03 nM | – | – | – | – | – | cell proliferation of keratinocytes [10]: reduce cell proliferation of keratinocytes
5 | CC(=O)N[C@@H](CCC(N)=O)C(=O)NCC(=O)N[C@@H](C)C(=O)O [QGA] | – | – | – | – | – | – | – | eye tissue in which the peptide was found by mass spectrometry [5]: Retina only; IC50, inhibition of trans-endothelial migration of PBLs [6]: 0.009438 ng/mL
6 | C[C@@H](O)[C@H](NC(=O)[C@H](Cc1c[nH]c2ccccc12)NC(=O)[C@@H](N)CO)C(N)=O [SEQ ID NO. 17, H-SWT-NH2] | 1.23 h | 0.0236 nM | 46.69% | more effective | – | – | 74.47% | –
7 | CC(C)[C@H](NC(=O)[C@@H](N)CO)C(=O)N[C@H](C(N)=O)[C@@H](C)O [SEQ ID NO. 4, H-SVT-NH2] | > 3 h | 0.01 nM | – | – | at least as stable | > 3 h | 38.50% | potency at inhibiting the transmigration of T cells compared with PEPITEM (IC50) [6]: more potent

Where two headings read alike, the source gives them in different places.
